For assay [1], the system named is Xbp1 mRNA splicing in U87 cells. As to the kind of experiment: Xbp1 mRNA splicing in tunicamycin-stressed U87 cells. The following applies: 1 μg/mL tunicamycin, 24 hrs, 25 μM compound (FIG. 2B). Here is the method:
FIG. 2: Compound 33 (Z4) and compound 28 (Z4P) inhibit IRE1 activity in cellular models. (A) Protein levels of IRE1 and phospho-IRE1 in U87 cells treated with compound 33 (Z4) and compound 28 (Z4P) over 24 hours. Fold change of protein expression between IRE1 and phospho-IRE1 is represented in bar chart form normalized to untreated U87 cells. (B) Quantification of XBP1s mRNA levels upon treatment with 1 μg/mL Tunicamycin over 24 hrs in the presence or absence of pre-treatments with 25 μM compound 33 (Z4) or compound 28 (Z4P) normalized to untreated U87 cells. (C) Quantification of SPARC mRNA levels in the presence of 5 μg/mL Actinomycin D and presence or absence of 10 μg/mL Tunicamycin and 9 μg/mL compound 33 (Z4) or compound 28 (Z4P) over 4 hours in U87 cells. […] The non-linear regression was calculated using the GraphPad Prism software. […]
Cell culture and treatments—U87MG (U87; ATCC) cells were authenticated as recommended by AACR (http://aacrjoumals.org/content/cell-line-authentication-information) and regularly tested for the absence of mycoplasma using MycoAlert® (Lonza, Basel, Switzerland) or MycoFluor (Invitrogen, Carlsbad, CA, USA). […] After 6 days of incubation, WST1 reagent (Roche) was added to each well and post 2-hour incubation the plate was read using a Tecan 200 colorimeter. […]
Quantitative real-time PCR—Total RNA was prepared using TRIzol reagent (Invitrogen, Carlsbad, CA, USA). […]

The chains behind the UniProt entries cited, without tags or fusion partners. Residues count along the entry.
UniProt O75460, 465-977 limits assumed: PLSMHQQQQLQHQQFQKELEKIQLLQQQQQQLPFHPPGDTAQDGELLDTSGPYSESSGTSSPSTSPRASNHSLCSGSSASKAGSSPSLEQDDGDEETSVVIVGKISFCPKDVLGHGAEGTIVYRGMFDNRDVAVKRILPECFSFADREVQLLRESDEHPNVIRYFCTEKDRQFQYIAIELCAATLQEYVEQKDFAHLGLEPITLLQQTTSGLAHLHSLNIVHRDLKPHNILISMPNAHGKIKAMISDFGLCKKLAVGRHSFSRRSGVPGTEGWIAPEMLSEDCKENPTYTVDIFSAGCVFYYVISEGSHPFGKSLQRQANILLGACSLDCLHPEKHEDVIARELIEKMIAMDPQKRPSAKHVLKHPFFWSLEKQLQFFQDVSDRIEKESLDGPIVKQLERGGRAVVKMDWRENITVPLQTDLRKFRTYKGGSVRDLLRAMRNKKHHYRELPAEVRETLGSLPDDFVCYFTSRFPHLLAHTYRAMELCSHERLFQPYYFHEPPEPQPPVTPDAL

In another assay the target is IRE1 (Homo sapiens, UniProt O75460). Kind of assay: MicroScale Thermophoresis (MST) direct binding to recombinant IRE1. The following applies: recombinant IRE1, MST, one-site saturation binding; data not shown. An excerpt:
Materials—IRE1 wild-type recombinant protein encoding the cytoplasmic domain (amino acids 465-977) with N-terminal polyhistidine-tag and GST tag was from Sinobiological (Sino Biological Europe GmbH, Eschborn, Germany, #11905-H20B). The fluorescent probe used for the in vitro IRE1 RNase assay was from Eurogentec. Tunicamycin was purchased from Calbiochem (Merck KGaA, Darmstadt, Germany). All the inhibitors were synthesized by and purchased from Enamine (Riga, Latvia).
MicroScale Thermophoresis13 The direct binding of compound 33 (Z4) and compound 28 (Z4P) to IRE1 protein was measured using MicroScale Thermophoresis (MST). IRE recombinant protein was labelled using RED-Tris-NTA fluorescent dye (RED-Tris-NTA 2nd Generation, NanoTemper, Munich, Germany; #MO-L018). For the labelling step, 100 μL of 20 nM protein solution is mixed with 100 μL of 10 nM RED-Tris-NTA dye in PBST buffer (PBS with 0.05% Tween-20) and incubated for 30 min at RT. The protein—dye mixture was centrifuged for 10 min at 4C and 15 000×g. For measurement of direct binding, the compounds were analyzed in a 16-point dilution series mixed in a 1:1 ratio with the labelled protein in PBST buffer. The assay was performed in standard Monolith NT.115
Capillaries (NanoTemper; #MO-K022), and all measurements were performed at 60% MST power and 60% excitation power using the Monolith NT. 115 Pico machine (NanoTemper). The dissociation constant (Kd) was calculated by taking the average of triplicate normalized fluorescence data using NANOTEMPER analysis software (MO.Affinity Analysis v2.3). The normalized values were converted to fraction-bound data, and the resulting binding curves are plotted using GRAPHPAD PRISM software (GraphPad Software).
To monitor the interaction between IRE1 and the compounds, micro-scale thermophoresis (MST) was used with recombinant IRE1 and increasing concentrations of compound 33 (Z4) and compound 28 (Z4P) (racemic mixtures) and the pure compound 28 (Z4P) enantiomers. […] To this end, the racemic compound was synthesized and the enantiomers separated by chiral chromatography. […] Additionally, compounds 28 (Z4P), 33 (Z4), 34 (Z4A), 35 (Z4B), 36 (Z4C), 37 (Z4D) and 38 (Z4E) were tested for inhibitory activity using a fluorescence resonance energy transfer (FRET)—quenched IRE1 RNA substrate probe and yielded IC50s in the low micromolar range (FIG. 1).
On the technique in general: MST reads how a fluorescent partner responds to local heating, with and without ligand.

For orientation: Kd means the free concentration of one partner at which half of the binding sites on the other are occupied at equilibrium, for simple one-to-one binding. For the compound `Cc1ccc(C)c(NC(=O)NC(C)CCc2ccc(O)cc2)c1` (racemic), the “Xbp1 mRNA splicing” value in assay [1] is “inhibited Xbp1 mRNA splicing”. Moreover, on IRE1, the Kd stood at 120 µM.
On the same counts, the results for `Cc1ccc(C(N)=O)cc1NC(=O)NC(C)CCc1ccc(O)cc1` (racemic) are “inhibited Xbp1 mRNA splicing” and 20 µM.

The values are drawn from patent US20260382588A1, “COMPOUNDS CONTAINING A HYDROXYPHENYL MOIETY AND THEIR USE” (published 2026).
